From ChEMBL document CHEMBL1131143, “Predictive models for GABAA/benzodiazepine receptor subtypes: studies of quantitative structure-activity relationships for imidazobenzodiazepines at five recombinant GABAA/benzodiazepine receptor subtypes [alphaxbeta3gamma2 (x = 1-3, 5, and 6)] via comparative molecular field analysis” (J Med Chem, 1998)

The chains behind the UniProt entries cited, without tags or fusion partners.
UniProt Q16445, whole entry: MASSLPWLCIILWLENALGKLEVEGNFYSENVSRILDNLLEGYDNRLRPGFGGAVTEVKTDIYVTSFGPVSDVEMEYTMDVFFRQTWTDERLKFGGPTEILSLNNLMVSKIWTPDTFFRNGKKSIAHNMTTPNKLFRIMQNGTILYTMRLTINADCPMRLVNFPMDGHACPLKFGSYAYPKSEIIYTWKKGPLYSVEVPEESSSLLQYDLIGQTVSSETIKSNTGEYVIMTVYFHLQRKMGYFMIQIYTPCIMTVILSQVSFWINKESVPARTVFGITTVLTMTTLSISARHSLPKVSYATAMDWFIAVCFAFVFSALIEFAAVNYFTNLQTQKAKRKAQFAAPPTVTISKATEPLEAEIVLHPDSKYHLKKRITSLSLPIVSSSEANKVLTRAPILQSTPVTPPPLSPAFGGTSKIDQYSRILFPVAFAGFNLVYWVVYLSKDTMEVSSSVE

Key:
Format in all cases: protein-complex assay
[1] = target: GABA-A receptor; alpha-6/beta-3/gamma-2 (Homo sapiens, UniProt P18507+P28472+Q16445); experiment: Binding affinity against Gamma-aminobutyric acid A receptor alpha-6-beta-3-gamma-2
In short: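 Cells scraped into PBS, spun at 3000g, resuspended in 10 mM KH₂PO₄/100 mM KCl pH 7.4. Nonspecific binding with 10⁻⁵ M diazepam; 1 h to equilibrium at 4 °C; filtration, ice-cold buffer wash, scintillation counting.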

[2] = target: T1, GABA-A receptor; alpha-1/beta-3/gamma-2 (Homo sapiens, UniProt P14867+P18507+P28472); experiment: Binding affinity against alpha-1-beta-3-gamma-2 GABAA/BzR receptor subtype.
T1 sequence (P14867 whole entry): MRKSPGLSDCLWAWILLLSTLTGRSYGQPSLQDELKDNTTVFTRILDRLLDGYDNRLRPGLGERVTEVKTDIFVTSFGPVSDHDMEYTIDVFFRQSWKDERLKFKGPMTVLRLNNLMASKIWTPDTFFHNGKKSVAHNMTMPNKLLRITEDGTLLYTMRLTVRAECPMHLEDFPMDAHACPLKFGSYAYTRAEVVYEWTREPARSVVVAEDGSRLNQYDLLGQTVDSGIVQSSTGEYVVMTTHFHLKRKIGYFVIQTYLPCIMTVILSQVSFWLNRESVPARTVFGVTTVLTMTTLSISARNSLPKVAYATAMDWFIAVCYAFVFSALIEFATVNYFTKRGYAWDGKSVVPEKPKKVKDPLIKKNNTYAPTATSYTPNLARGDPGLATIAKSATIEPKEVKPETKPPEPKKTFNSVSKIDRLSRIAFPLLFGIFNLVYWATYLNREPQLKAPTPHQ
T1 sequence (P18507 whole entry): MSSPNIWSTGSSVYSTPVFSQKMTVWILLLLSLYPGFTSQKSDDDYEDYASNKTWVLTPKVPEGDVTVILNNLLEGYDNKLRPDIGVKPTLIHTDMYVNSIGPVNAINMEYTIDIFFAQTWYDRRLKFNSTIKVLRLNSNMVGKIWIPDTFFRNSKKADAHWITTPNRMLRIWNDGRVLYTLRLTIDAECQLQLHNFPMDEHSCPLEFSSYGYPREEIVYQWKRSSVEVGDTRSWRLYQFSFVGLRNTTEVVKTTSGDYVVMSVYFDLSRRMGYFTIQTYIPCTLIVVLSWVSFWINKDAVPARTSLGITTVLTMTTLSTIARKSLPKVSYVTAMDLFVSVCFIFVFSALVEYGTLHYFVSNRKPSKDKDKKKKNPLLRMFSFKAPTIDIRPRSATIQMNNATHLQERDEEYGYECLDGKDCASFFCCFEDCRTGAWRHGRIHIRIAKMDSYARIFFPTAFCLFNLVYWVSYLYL
T1 sequence (P28472 whole entry): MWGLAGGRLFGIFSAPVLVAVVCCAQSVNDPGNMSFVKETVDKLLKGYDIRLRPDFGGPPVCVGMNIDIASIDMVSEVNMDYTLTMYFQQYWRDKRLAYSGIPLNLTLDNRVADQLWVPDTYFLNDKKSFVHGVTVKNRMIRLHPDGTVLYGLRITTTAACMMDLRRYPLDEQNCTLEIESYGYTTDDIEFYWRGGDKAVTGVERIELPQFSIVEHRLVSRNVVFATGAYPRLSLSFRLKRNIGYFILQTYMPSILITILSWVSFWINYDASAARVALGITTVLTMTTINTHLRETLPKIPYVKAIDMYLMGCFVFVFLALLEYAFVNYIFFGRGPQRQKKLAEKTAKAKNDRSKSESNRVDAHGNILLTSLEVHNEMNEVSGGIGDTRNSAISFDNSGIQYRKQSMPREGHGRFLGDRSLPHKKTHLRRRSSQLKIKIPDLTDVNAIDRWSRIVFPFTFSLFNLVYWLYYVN

[3] = target: T2, GABA-A receptor; alpha-3/beta-3/gamma-2 (Homo sapiens, UniProt P18507+P28472+P34903); experiment: Binding affinity against alpha-3-beta-3-gamma-2 GABAA/BzR receptor subtype.
T2 sequence (P18507 whole entry): T1 sequence (P18507 whole entry)
T2 sequence (P28472 whole entry): T1 sequence (P28472 whole entry)
T2 sequence (P34903 whole entry): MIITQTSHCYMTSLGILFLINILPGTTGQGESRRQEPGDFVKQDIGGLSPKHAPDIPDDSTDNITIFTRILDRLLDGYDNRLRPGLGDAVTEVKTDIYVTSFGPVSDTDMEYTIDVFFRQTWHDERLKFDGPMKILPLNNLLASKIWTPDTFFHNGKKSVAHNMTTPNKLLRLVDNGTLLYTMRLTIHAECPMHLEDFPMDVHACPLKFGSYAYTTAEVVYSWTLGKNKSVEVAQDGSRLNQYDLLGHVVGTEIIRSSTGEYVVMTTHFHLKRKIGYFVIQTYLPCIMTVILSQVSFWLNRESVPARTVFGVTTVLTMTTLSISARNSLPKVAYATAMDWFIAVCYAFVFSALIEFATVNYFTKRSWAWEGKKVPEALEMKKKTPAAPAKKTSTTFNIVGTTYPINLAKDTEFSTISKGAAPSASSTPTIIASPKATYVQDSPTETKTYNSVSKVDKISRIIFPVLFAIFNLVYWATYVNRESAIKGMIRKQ

[4] = target: T3, GABA-A receptor; alpha-2/beta-3/gamma-2 (Homo sapiens, UniProt P18507+P28472+P47869); experiment: Binding affinity tested against alpha-2-beta-3-gamma-2 GABAA/BzR receptor subtype.
T3 sequence (P18507 whole entry): T1 sequence (P18507 whole entry)
T3 sequence (P28472 whole entry): T1 sequence (P28472 whole entry)
T3 sequence (P47869 whole entry): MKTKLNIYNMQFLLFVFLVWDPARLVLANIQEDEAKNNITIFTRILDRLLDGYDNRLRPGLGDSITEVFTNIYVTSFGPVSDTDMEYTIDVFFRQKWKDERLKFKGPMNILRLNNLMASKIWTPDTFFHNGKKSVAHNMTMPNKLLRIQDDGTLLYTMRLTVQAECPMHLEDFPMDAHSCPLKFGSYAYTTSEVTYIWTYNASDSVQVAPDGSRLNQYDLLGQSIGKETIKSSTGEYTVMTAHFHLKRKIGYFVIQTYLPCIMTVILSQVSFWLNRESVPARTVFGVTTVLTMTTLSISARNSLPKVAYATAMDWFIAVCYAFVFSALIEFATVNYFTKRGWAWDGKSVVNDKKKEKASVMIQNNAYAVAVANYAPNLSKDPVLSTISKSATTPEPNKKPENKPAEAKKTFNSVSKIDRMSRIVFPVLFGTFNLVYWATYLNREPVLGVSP

Question: With CCOC(=O)c1ncn2c1CN(C)C(=O)c1cc(N=[N+]=[N-])ccc1-2 [Ro-154513] as the compound, how does the Ki [1] read?
Answer: The Ki was 3.8 nM.

Question: And the Ki [2]?
Answer: Its Ki is 3.3 nM.

Question: What about the Ki [3] of the same compound?
Answer: Its Ki is 2.5 nM.

Question: What about the Ki [4] of the same compound?
Answer: The Ki was 2.6 nM.
